Values of other authors as cited in patent US20240299593A1, “SYSTEMS AND METHODS FOR GENERATION OF HYPERPOLARIZED MATERIALS” (NVISION IMAGING TECHNOLOGIES GMBH, priority 2021, published 2024).

Conditions: ICH toxicity limits, residual solvent; cited from earlier work

Question: For C[N+](=O)[O-], which “Permissible Daily Exposure” value is on record?
Answer: 0.5 mg/day
